The values that follow come from patent US4005220A, “Hemostatic compositions comprising salts of substituted hydroquinone sulfonic acid” (Laboratorios del Dr. Esteve, S.A., priority 1973, dated 1977).

In the data set the test system is mice. Kind of data set: Acute toxicity in mice, LD50 (method of Reed and Muench). Type of data set: in vivo. As to the method: 1. Acute toxicity in mice
Albino mice of 18 to 25 g. The LD50 was determined in accordance with the method of Reed and Muench.
The acute toxicity in mice was determined in accordance with the method of REED and MUENCH, in a modified form (Reed L. J. and Muench H., Am. J. Hyg., 27, 493, 1938). The effect on the average bleeding time was determined by the Roskam technique modified by Laporte (Laporte J., Chemotherapia, 3, 62, 1961).

The LD50 is the dose at which mortality reaches 50%.

Consider “Diethylamine (tertiary butyl)-p-dihydroxybenzenesulphonate”, for which the median lethal dose (LD50) (i.v., mice (summary table)) came out at 475 mg/kg; the 50% lethal dose (LD50) (intravenous, female mice) amounted to 475.3 mg/kg; the median lethal dose (LD50) (intravenous, male mice) turned out to be 475 mg/kg; the LD50 (oral, female mice) is listed as 3,732 mg/kg; the LD50 (oral, male mice) is listed as 2,552 mg/kg.
